Test results published in patent publication US7576105B2, “Benzyl substituted (piperidin-4-yl)aminobenzamido derivatives” (priority 2002, dated 2009).
pKi: −log10 of the molar value.

By UniProt entry, the sequences of proteins in these tests, tags left out. Where a name states a change or a piece, a line headed by the entry shows the natural chain unless it says otherwise.
UniProt P33533, whole entry, looked up: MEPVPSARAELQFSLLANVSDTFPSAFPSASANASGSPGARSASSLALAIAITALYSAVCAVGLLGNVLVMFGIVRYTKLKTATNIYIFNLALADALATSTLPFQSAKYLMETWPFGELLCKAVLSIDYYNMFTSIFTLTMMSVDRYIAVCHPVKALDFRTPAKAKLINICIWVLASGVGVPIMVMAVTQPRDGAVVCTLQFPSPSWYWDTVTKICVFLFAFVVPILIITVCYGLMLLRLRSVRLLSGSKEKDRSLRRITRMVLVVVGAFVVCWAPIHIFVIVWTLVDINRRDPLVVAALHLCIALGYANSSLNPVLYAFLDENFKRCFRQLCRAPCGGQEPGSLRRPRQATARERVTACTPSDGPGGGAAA
UniProt P33535: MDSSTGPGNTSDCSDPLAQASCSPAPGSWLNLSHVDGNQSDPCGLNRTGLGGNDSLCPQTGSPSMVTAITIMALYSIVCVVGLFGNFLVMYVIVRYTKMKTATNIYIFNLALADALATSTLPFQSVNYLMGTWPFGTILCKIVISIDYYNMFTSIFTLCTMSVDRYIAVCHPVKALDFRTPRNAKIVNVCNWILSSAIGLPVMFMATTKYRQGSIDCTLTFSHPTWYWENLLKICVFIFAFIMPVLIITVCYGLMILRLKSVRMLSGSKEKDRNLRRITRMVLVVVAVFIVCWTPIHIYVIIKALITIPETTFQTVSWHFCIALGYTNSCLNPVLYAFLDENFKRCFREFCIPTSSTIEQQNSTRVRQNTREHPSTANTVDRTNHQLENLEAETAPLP

Tests used:
δ-opioid receptor = δ-opioid receptor (Rattus norvegicus, UniProt P33533); assay: Rat brain δ-opioid receptor binding assay
μ-opioid receptor = μ-opioid receptor (Rattus norvegicus, UniProt P33535); assay: Rat brain μ-opioid receptor binding assay
[1] = tested on: acetylcholine bromide-induced abdominal constriction; assay: Mouse acetylcholine bromide-induced abdominal constriction assay (MAIT); type: in vivo; settings: 150 μmole/Kg p.o., 30 min before 5.5 mg/kg i.p. acetylcholine bromide

| Compound | δ-Opioid Receptor Binding % Inhibition @ 1 μM (δ-opioid receptor; 1 μM test compound, rat forebrain particulate preparation, [3H]DPDPE, 25° C.) [%] | pKi (δ-opioid receptor) | pKi (μ-opioid receptor) | MAIT % Inhibition @150 μmol/kg [1] [%] |
| --- | --- | --- | --- | --- |
| CCCN1CCC(NC(c2ccc(C(=O)N(CC)CC)cc2)c2cccc(OC)c2)CC1 (stereo not shown) | 5 | – | – | – |
| N,N-diethyl-4-[4-fluoromethylphenyl(1-propylpiperidin-4-yl)amino]benzamide | – | 6.96 | – | – |
| N,N-diethyl-4-[3-fluorobenzyl(1-propylpiperidin-4-yl)amino]benzamide | – | 7.14 | 5.86 | 100 |
| N,N-diethyl-3-[3-hydroxyphenyl(1-propylpiperidin-4-yl)aminomethyl]benzamide | – | 6.45 | 6.81 | – |
| N,N-diethyl-3-[3-fluorophenyl(1-propylpiperidin-4-yl)aminomethyl]benzamide | – | 5.99 | – | – |
| N,N-Diethyl-3-[phenyl(1-propylpiperidin-4-yl)aminomethyl]benzamide | – | 5.98 | – | – |
| N,N-diethyl-4-[3-trifluoromethylphenyl(1-propylpiperidin-4-yl)amino]benzamide | – | 5.66 | ≤ 5.00 | – |
| N,N-Diethyl-3-[3-methoxyphenyl(1-propylpiperidin-4-yl)aminomethyl]benzamide | – | 5.40 | ≤ 5.00 | – |
